This data set can be described thus: Solubility test (film-forming method). As to the method:
Each compound was applied on a glass plate and the glass plate was leaned against the wall. Each solvent shown in Table 5 was dropped (5 to 6 drops) on the glass plate with a pasteur pipette. The glass plate was visually observed after the dropped solvent was dried, the surface was optionally rubbed with a spatula, and the solubility (film-forming method) was evaluated according to the criteria shown in Table 4.

As for “Zinc methacrylate [Zn(MAA)2, reference compound]”, the “Solubility (film-forming method) Toluene” value (Toluene) is given as “X-Δ”. Besides, the “Solubility (film-forming method) Water” value (solvent dropped on film on glass plate, Water) is “X-Δ”.

Consider “Magnesium methacrylate [Mg(MAA)2, reference compound]”, for which the “Solubility (film-forming method) THF” value (THF) is “X-Δ”.

Values taken from patent US9499466B2, “Diene-based carboxylate anion and salt thereof, and polymerizable or curable composition thereof” (NIPPON SHOKUBAI CO., LTD., priority 2010, dated 2016).
